These results are taken from ChEMBL document CHEMBL4699657, “Fragment-to-Lead Medicinal Chemistry Publications in 2019” (J Med Chem, 2020).

The structures appear in SMILES notation.

The assay deals with T1, Histone-lysine N-methyltransferase NSD3 (Homo sapiens, UniProt Q9BZ95).
T1 sequence (Q9BZ95 whole entry): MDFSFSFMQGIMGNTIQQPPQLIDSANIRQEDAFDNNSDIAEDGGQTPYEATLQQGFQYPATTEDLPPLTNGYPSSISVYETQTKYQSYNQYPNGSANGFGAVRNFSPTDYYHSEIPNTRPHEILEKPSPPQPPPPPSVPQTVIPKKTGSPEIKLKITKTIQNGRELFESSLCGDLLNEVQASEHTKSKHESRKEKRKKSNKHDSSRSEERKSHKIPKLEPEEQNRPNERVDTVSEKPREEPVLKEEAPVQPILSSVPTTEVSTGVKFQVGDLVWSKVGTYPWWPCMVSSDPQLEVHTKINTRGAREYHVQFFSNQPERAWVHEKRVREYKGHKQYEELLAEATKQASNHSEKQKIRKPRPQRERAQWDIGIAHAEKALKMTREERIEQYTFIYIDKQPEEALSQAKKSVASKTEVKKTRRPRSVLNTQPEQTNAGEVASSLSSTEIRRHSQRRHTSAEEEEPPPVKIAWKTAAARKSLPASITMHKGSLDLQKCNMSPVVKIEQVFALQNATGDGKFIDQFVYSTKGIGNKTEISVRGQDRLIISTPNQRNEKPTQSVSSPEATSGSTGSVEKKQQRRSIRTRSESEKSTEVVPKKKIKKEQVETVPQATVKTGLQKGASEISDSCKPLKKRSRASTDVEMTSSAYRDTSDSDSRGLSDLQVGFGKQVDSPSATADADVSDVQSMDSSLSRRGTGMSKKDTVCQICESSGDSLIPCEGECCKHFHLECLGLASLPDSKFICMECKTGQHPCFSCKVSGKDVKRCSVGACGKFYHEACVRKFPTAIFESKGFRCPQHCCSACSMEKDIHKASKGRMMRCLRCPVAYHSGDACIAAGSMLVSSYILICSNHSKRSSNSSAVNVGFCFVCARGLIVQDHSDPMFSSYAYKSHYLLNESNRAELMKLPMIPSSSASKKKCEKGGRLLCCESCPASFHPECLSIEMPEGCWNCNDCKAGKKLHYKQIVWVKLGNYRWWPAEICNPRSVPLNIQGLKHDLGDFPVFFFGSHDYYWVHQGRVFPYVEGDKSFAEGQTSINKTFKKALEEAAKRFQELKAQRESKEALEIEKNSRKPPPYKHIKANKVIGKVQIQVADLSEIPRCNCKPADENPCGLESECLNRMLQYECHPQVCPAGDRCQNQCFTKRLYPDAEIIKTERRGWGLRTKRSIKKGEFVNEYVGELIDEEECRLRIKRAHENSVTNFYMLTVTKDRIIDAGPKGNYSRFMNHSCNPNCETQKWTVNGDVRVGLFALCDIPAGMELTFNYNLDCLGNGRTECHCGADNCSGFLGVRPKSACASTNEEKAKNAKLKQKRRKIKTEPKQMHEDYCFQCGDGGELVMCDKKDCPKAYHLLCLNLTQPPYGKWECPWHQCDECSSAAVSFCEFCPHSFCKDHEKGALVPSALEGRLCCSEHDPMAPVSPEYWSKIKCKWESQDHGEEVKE
The assay is described as follows: Binding affinity to NSD3 PWWP1 domain (263 to 398 residues) (unknown origin) expressed in Escherichia coli BL21(DE3) by SPR method.

Consider `Cc1cc(CN)cc(C)c1-c1ncn(C)c1-c1ccnc2cc(F)ccc12`, for which the equilibrium dissociation constant (Kd) worked out at 170 nM.
